Source: patent publication US20260008783A1, “MODULATORS OF FSHR AND USES THEREOF” (Celmatix Inc., priority 2022, published 2026)
Like-named read-outs stand apart in the source and are kept apart here.

The chains behind the UniProt entries cited, without tags or fusion partners. Residues count along the entry.
UniProt P23945, 18-695 limits assumed: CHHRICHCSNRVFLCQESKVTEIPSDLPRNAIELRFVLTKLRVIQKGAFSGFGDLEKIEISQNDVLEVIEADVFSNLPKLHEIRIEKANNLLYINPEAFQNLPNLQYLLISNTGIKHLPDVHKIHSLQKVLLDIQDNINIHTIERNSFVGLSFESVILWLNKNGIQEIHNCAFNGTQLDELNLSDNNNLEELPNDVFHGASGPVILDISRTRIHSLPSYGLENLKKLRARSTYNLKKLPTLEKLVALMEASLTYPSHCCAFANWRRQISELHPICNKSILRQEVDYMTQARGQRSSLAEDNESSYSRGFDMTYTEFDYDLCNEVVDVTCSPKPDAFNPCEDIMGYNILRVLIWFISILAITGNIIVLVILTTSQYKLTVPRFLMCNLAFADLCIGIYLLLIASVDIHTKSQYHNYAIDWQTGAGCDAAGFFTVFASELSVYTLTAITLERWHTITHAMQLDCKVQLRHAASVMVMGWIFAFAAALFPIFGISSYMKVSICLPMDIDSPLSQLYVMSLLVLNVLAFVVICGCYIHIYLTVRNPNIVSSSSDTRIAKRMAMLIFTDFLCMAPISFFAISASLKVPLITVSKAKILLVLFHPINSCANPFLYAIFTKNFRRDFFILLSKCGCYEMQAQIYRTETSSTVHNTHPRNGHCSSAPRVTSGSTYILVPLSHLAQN

Target: Follicle Stimulating Hormone Receptor (FSHR) (Homo sapiens, UniProt P23945)
Experiment: HTRF cAMP agonist assay, FSHR, transiently transfected CHO-K1 cells
Source text: Example 17. HTRF cAMP Agonist Assay Protocol (for FSHR, TSHR, LHCGR)
Mammalian expression vectors designed to express either Follicle Stimulating Hormone Receptor (FSHR), Thyroid Stimulating Hormone Receptor (TSHR), or Luteinizing Hormone/Choriogonadotropin Receptor (LHCGR), were generated with an HA-tag on the N-terminus. All constructs were expressed under a human cytomegalovirus (CMV) immediate early enhancer and promoter using the pHM6 expression vector. The protein coding region was confirmed by sequence analysis to be in-frame and of the expected sequence, matching the following accession numbers: FSHR NM_000145, TSHR NM_000369, and LHCGR NM_000233.
HTRF cAMP assays were performed using Chinese Hamster Ovary (CHO-K1) cell lines transiently expressing human FSH, TSH, and LHCG receptors. 48 hours before the assay, cells were washed with PBS and then dissociated from tissue culture flasks with 0.25% trypsin. Dissociated cells were quenched in full media (F-12K Medium Corning REF #10-025-CV, 10% Avantor Seradigm FB Essence Cat #10803-034, 1% Penicillin/Streptomycin Cytiva HyClone Cat #SV30010) and then collected by centrifugation at 290×g for 5 min. Cells were resuspended in full media and dispensed into 150 mm cell culture dishes (Nest Scientific Cat #715001), at 2.3×10^6 cells/flask. 7 hours later, cells were transfected using Lipofectamine transfection reagent (Invitrogen Cat #18324020). Briefly, 60 μL of lipofectamine was dispensed into 2 mL of Opti-MEM (Gibco Cat #31985070) and incubated for 5 minutes at room temperature. Then, the mixture was added onto […] of DNA and incubated for another 20 minutes at room temperature. Cells were washed with warm (37° C.) PBS. 17.5 mL of Opti-MEM was dispensed onto the cells, followed by addition of the Opti-MEM/lipofectamine/DNA mixture. Cells were incubated overnight in a 37° C., 5% CO2 cell incubator. 17-19 hours later, Opti-MEM was aspirated off the cells and replaced with full media. Cells were incubated for another 24 hours in a 37° C., 5% CO2 cell incubator.
On the day of the assay, cells were washed with PBS and then dissociated from tissue culture flasks with 0.25% trypsin. Dissociated cells were quenched in full media and then collected by centrifugation at 290×g for 5 min. Cells were resuspended in PBS^+/+ (Corning REF #20-030-CV) to a concentration of 2×10^5 cells/mL. 10 μL/well of cells (2,000 cells/well) were dispensed into 384-well Corning plates (REF #3825), in triplicate. Cells were incubated at room temperature for 2 hours.
Example FSHR Modulator compounds were diluted in assay buffer (PBS^+/+, 0.05% BSA Sigma-Aldrich A3059, 500 μM IBMX Sigma-Aldrich 15879) to 3.5× the final assay concentration. 4 μL of test agonist was added to the cells and incubated for 1 hour at room temperature. 10 μL of cAMP detection reagents (LANCE Ultra cAMP Detection Kit PerkinElmer TRF0264) were dispensed onto the cells and plates were incubated for 2 hours at room temperature (cAMP detection reagents were made according to the PerkinElmer kit protocol). Plates were read on an Envision plate reader following PerkinElmer guidelines.
Raw data for all assays was transmitted directly from plate readers into a database for processing. All assay plates contained both positive and negative control wells to allow for data normalization and scaling. In agonist assays, negative control wells contained assay buffer and positive control wells contained […] positive control (10 nM Follicle Stimulating Hormone Sigma-Aldrich F4021, 50 nM Thyroid Stimulating Hormone Sigma-Aldrich 869006, 50 nM Luteinizing Hormone MyBioSource MBS5308806, for their respective receptors). All control wells contained DMSO at a final assay concentration that matched the test compound wells. […]
Percent control data were analyzed by non-linear regression with a sigmoidal dose response algorithm in the database to yield potency and efficacy data.

[1] = read-out: IC50 FSHR LANCE CAMP, CHO-K1 cells transiently expressing human FSHR, tested form: TFA
[2] = read-out: IC50 FSHR LANCE CAMP, CHO-K1 cells transiently expressing human FSHR

Structure (SMILES)	IC50 [1]	IC50 [2]
COc1cc2oc3c(C(=O)N(C)C(C)(C)C)n(-c4ccsc4)nc3c2cc1-c1ccn(C)n1	4890 nM	
COc1cc2c(cc1-c1cncc(C(N)=O)c1)-c1c(c(C(=O)N3CCOCC3(C)C)nn1-c1cc(Cl)cc(Cl)c1)CO2	4.17 nM	
COc1cc2c(cc1-c1cncc(C(=N)NO)c1)-c1c(c(C(=O)N(C)C(C)(C)C)nn1-c1cc(Cl)cc(Cl)c1)CO2	9.55 nM	
COc1cc2oc3c(C(=O)N(C)C(C)(C)C)nn(-c4ccsc4)c3c2cc1-c1ccn(C)n1	3010 nM	
COc1cc2c(cc1-c1ccn(C)n1)-c1c(c(C(=O)N(C)C(C)(C)C)nn1-c1cc(Cl)cc(Cl)c1)S(=O)(=O)C2	319 nM	
COc1cc2c(cc1-c1cncc(C(N)=O)c1)-c1c(c(C(=O)N(C)C(C)(C)C)nn1-c1cc(Cl)cc(Cl)c1)S(=O)(=O)C2	2.91 nM	
COc1cc2c(cc1-c1cncc(C#N)c1)-c1c(c(C(=O)N3CCOCC3(C)C)nn1-c1cc(Cl)cc(Cl)c1)CO2	18.2 nM	
COc1cc2c(cc1-c1ccn(C)n1)-c1c(c(C(=O)N(C)C(C)(C)C)nn1-c1cc(Cl)cc(Cl)c1)[S+]([O-])C2 (stereo not drawn)	578 nM	
COc1cc2c(cc1Br)-c1c(c(C(=O)N(C)C(C)(C)C)nn1-c1cc(Cl)cc(Cl)c1)CO2		1110 nM
COc1cc2c(cc1-c1cncc(C#N)c1)-c1c(c(C(=O)N(C)C(C)(C)C)nn1-c1cc(Cl)cc(Cl)c1)S(=O)(=O)C2	76.3 nM	
COc1cc2c(cc1-c1cncc(C#N)c1)-c1c(c(C(=O)N(C)C(C)(C)C)nn1-c1cc(Cl)cc(Cl)c1)CO2	51.9 nM	
COc1cc2c(cc1Br)-c1c(c(C(=O)N3CCOCC3(C)C)nn1-c1cc(Cl)cc(Cl)c1)CO2		768 nM
COc1cc2c(cc1-c1cncc(C(N)=O)c1)-c1c(c(C(=O)N(C)C(C)(C)C)nn1-c1cc(Cl)cc(Cl)c1)CO2	14.8 nM	
COc1cc2c(cc1-c1cncc(C(N)=O)c1)-c1c(c(C(=O)N3CCOCC3(C)C)nn1-c1cc(Cl)cc(Cl)c1)S(=O)(=O)C2	11.9 nM	
COc1cc2c(cc1-c1ccn(C)n1)-c1c(c(C(=O)N3CCOCC3(C)C)nn1-c1cc(Cl)cc(Cl)c1)S(=O)(=O)C2		376 nM
